Results from US12139488B2, “Pyrido[3,2-d]pyrimidine compounds uses thereof for treating a proliferative disease” (Universite de Montreal, priority 2021, dated 2024).
Read-outs that look alike come from different tables or passages of the source.

What was measured:
[1] = system: Mewo cells (NF1 LOF); test: Proliferation inhibition (CellTiter-Glo), Mewo; details: read-out: Mewo Prolif. EC50, 3 days
Description: (§1) All cancer cell lines (A375, A101D, A2058, RKO, HT29 SK-MEL 30, IPC298, HepG2, HCT-116, Lovo, SWV620, SW480, NCI-H358, NCI-H2122, Calu-6, NCIH2087, NCIH1755, NCIH1666 and Mewo) were obtained from ATCC and cultured in RPMI-1640 medium (Gibco) supplemented with 5% heat inactivated fetal bovine serum (FBS, Wisent) at 37° C. under 5% CO2. Cells were maintained in T175 flasks (Greiner). They were passaged by removing the culture medium, washing once in 10 mL of room temperature Phosphate Buffered Saline (PBS; Wisent) and incubating at 37° C. with 2 mL of 0.05% Trypsin (Thermo-Fisher). Trypsin was then inactivated by adding complete growth medium and the cells were then replated in a T175 culture dish at the appropriate dilution. All cell lines were routinely tested for mycoplasma contamination. Tissue type and mutational status of each cell line can be found in Table B.
(§2) CellTiter-Glo® viability analysis was conducted on cells plated in 100 μL of complete RPMI-1640 growth medium in 96-well flat-bottomed white opaque plates (Greiner or Croning) at a density indicated in Table E (for each CCL, number of cells plated per well of a 96-well plate to perform the CellTiter-Glo® cell viability assay). The cell density in cells/cm^2 would correspond to cell number divided by the area of one well of a 96-well plate (0.32 cm^2). Cells were maintained overnight at 37° C. under 5% CO2 before treatment with compounds' dilution series for 3 days.
(§3) In a dilution series 100 μL/well of test substance dilution prepared in complete RPMI-1640 growth media was added to the cells plated initially in 100 μL of growth media. The dilution series is selected so that ten concentrations cover a range from 10 μM to 0.33 nM. If necessary (as in the case of A375 cells, which were more sensitive to the compounds) the initial concentration of 10 μM is lowered to 1 μM and further dilution is carried out accordingly. The final concentration of DMSO in the assay is set at is 0.5%.
(§4) After 3 days of incubation, the growth media were removed by aspiration and 60 μL of diluted CellTiter-Glo® reagent (10 μL CellTiter-Glo® reagent+50 μL of PBS) was added to each well. Cells were allowed to lyse and to equilibrate in CellTiter-Glo® reagent by 5 min incubation on a plate shaker followed by 10 min incubation at room temperature. Luminescence signals were then acquired on a Synergy Neo2 plate reader (Biotek).
(§5) The effect of each compound dilution on the proliferation of cancer cell lines was expressed in % inhibition and calculated as follows. An internal 100% inhibition control (1 μM of trametinib; cat #HY-10999; MedChem Express; CAS #871700-17-3) was included in each plate and used as a measure of CellTiter-Glo® signal background. The value obtained for trametinib was subtracted from each data point. The average of DMSO (vehicle) controls (set as 0% inhibition) was established and used to calculate % inhibition: % inhibition=100*(1−((CellTiter-Glo® signalcompound)/(CellTiter-Glo® signalDMSO)))
(§6) The ability of each compound to inhibit proliferation was expressed as a EC50 value obtained by plotting the effect values for each data point of a dilution series and fitting the obtained curves using a log(agonist) versus response-variable slope (four parameters) function using GraphPadPrism (V7.0) or Dotmatics Screening Ultra platform.

[2] = system: A2058 cells (BRAF V600E); test: Proliferation inhibition (CellTiter-Glo), A2058; details: read-out: A2058 Prolif. EC50; A2058, 3 days
Description: as §1, §2, §3, §4, §5, §6

[3] = system: pERK in HCT-116 cells (KRAS G13D); test: Phospho-ERK inhibition (AlphaLISA SureFire Ultra p-ERK 1/2), HCT116; details: for HCT116 pERK % Ymin: value in parentheses; for IC50: read-out: HCT116 pERK IC50; for HCT116 pERK % Ymin (lowest value of the IC50 curve): Ymin above −20% = minimal or no paradoxical activation; for HCT116 pERK Ymin %: Ymin in brackets
Outline: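 Cells plated in RPMI-1640 with 5% FBS, kept overnight at 37° C, then treated 1 h with ten-point dilutions (top usually 10 μM; 0.5% DMSO). Lysate p-ERK1/2 (Thr202/Tyr204) read by AlphaLISA SureFire Ultra. % inhibition set against DMSO after subtracting the trametinib background; IC50 from four-parameter fit.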

[4] = system: pERK in NCIH1755 cells (BRAF G469A); test: Phospho-ERK inhibition (AlphaLISA), NCIH1755; details: for NCIH1755 pERK % Ymin: NCIH1755, value in parentheses; for IC50: read-out: NCIH1755 pERK IC50, NCIH1755
Description: as §1
(§7) AlphaLISA® SureFire® Ultra™ p-ERK 1/2 (Thr202/Tyr204) analysis was conducted on cells plated in 100 μL of complete RPMI-1640 growth medium in 96-well flat-bottomed transparent dishes (Costar) at a density indicated in Table C. Cells were maintained overnight at 37° C. under 5% CO2 before treatment with compounds' dilution series for one hour. The cell density in cells/cm^2 corresponds to cell number divided by the area of one well of a 96-well plate ([…]).
(§8) In a dilution series 100 μL/well of test substance dilution prepared in complete RPMI-1640 growth media was added to the cells. The dilution series is selected so that ten concentrations cover a range from 10 μM to 0.33 nM. If necessary the initial concentration of 10 μM is increased to 100 μM or lowered to 1 μM (as in the case of A375 and H1666 cells, which are generally more sensitive to the compounds) and further dilution is carried out accordingly. The final concentration of DMSO in the assay is set at 0.5%.
(§9) After treatment, media was removed and cells were lysed in 50 μL of 1× AlphaScreen Ultra Lysis Buffer (Perkin Elmer). The AlphaLISA® SureFire® Ultra™ p-ERK 1/2 (Thr202/Tyr2O4) (PerkinElmer) reactions were performed with 5 μL of cell lysate according to the manufacturer's specifications in 384-well proxyplates (Perkin Elmer) followed by overnight incubation of the reactions at room temperature in a humidified chamber. After completion of the reactions, the signals were recorded on an EnVision plate reader (Perkin Elmer) using built in AlphaLISA® settings.
(§10) The effect of each compound dilution on the pERK signal was expressed in % inhibition and calculated as follows. An internal 100% inhibition control ([…] trametinib, cat #HY-10999; MedChem Express; CAS #871700-17-3) was included in each plate and used as a measure of pERK background. First, the value obtained for trametinib was subtracted from each data point. The average of DMSO (vehicle) controls (set as 0% inhibition) was established and used to calculate % inhibition: % inhibition=100*(1-((pERK signalcompound)/(pERK signalDMSO)))
as §6, with “pERK signal” for “proliferation”, “an IC50” for “a EC50”, “inhibition” for “effect”
(§11) When present, paradoxical pERK induction is inferred from the negative % inhibition values observed in the pERK IC50 curves of a compound.

[5] = system: pERK in NCI-H2122 cells (KRAS-G12C); test: Phospho-ERK inhibition (AlphaLISA), NCI-H2122; details: for NCI-H2122 pERK % Ymin: NCI-H2122, value in parentheses; for IC50: read-out: NCI-H2122 pERK IC50, NCI-H2122
Description: as §1, §7, §8, §9, §10
as §6, with “pERK signal” for “proliferation”, “an IC50” for “a EC50”, “inhibition” for “effect”
as §11

[6] = system: pERK in SK-MEL30 cells (NRAS-Q61K); test: Phospho-ERK inhibition (AlphaLISA), SK-MEL30; details: for SK-MEL30 pERK % Ymin: SK-MEL30, value in parentheses; for IC50: read-out: SK-MEL30 pERK IC50, SK-MEL30
Description: as §1, §7, §8, §9, §10
as §6, with “pERK signal” for “proliferation”, “an IC50” for “a EC50”, “inhibition” for “effect”
as §11

[7] = HCT116 cells, class symbol before the bracket

IC50 ([3]; HCT116, Table D) [nM] | IC50 ([3]; HCT116 cells, class symbol) [nM] | IC50 [4] [nM] | IC50 [5] [nM] | IC50 [6] [nM] | HCT116 pERK % Ymin (lowest value of the IC50 curve) ([3]; HCT116 cells) [%] | IC50 ([3]; HCT116 cells) [nM] | IC50 [3, 7] [nM] | Structure (SMILES) | EC50 [1] [nM] | EC50 [2] [nM] | HCT116 pERK % Ymin ([3]; HCT116, Table D) [%] | NCIH1755 pERK % Ymin [4] [%] | NCI-H2122 pERK % Ymin [5] [%] | SK-MEL30 pERK % Ymin [6] [%] | HCT116 pERK Ymin % ([3]; HCT116 cells) [%]
30 to 300 | < 500 | < 30 | 30 to 300 | < 30 |  |  |  | O=S(=O)(CCCN1CCOCC1)c1cn(-c2ccc3ncnc(Nc4c(F)ccc(NS(=O)(=O)c5cccc(Cl)c5Cl)c4F)c3n2)c2ccccc12 | < 30 | < 30 | 0 | 2 | −3 | −9 | 
30 to 300 | < 500 |  |  |  |  |  |  | Cc1c(F)cccc1S(=O)(=O)Nc1ccc(F)c(Nc2ncnc3ccc(-n4nc(C(=O)N(C)Cc5cccnc5)c5ccccc54)nc23)c1F | 300 to 3000 | < 30 | −6.5 |  |  |  | 
30 to 300 |  | < 30 | 30 to 300 | < 30 | 5 | < 500 |  | CS(=O)(=O)C1CCN(c2cccc3c2nnn3-c2ccc3ncnc(Nc4c(F)ccc(NS(=O)(=O)c5cccc(Cl)c5Cl)c4F)c3n2)CC1 | 300 to 3000 | < 30 | 5 | 7 | 24 | 5 | 
30 to 300 | < 500 | < 30 | 30 to 300 | < 30 |  |  |  | COc1ccc(S(=O)(=O)Nc2ccc(F)c(Nc3ncnc4ccc(-n5cc(S(=O)(=O)N(C)CCN(C)C)c6ccccc65)nc34)c2F)c(C)c1F | < 30 | < 30 | −9 | 2 | 20 | 3 | 
30 to 300 | < 500 | < 30 | 30 to 300 | < 30 |  |  |  | CN(CCN1CCOCC1)S(=O)(=O)c1cn(-c2ccc3ncnc(Nc4c(F)ccc(NS(=O)(=O)c5cccc(Cl)c5Cl)c4F)c3n2)c2ccccc12 | < 30 | < 30 | −6 | 0 | 11 | −3 | 
30 to 300 |  | < 30 | 30 to 300 | < 30 |  |  | < 500 | Cc1c(Cl)cccc1S(=O)(=O)Nc1ccc(F)c(Nc2ncnc3ccc(-n4cnc5c(N)cccc54)nc23)c1F | 300 to 3000 | < 30 | 4.8 | 30 | 9 | 13 | 2.9
30 to 300 |  | < 30 | 30 to 300 | < 30 | −4 | < 500 |  | O=S(=O)(Nc1ccc(F)c(Nc2ncnc3ccc(-n4cnc5c(N6CCC7(CCCC7)CC6)cccc54)nc23)c1F)c1cccc(Cl)c1Cl | < 30 | < 30 | −4 | 5 | 30 | 2 | 
30 to 300 |  | < 30 | 30 to 300 | < 30 |  |  | < 500 | O=S(=O)(Nc1ccc(F)c(Nc2ncnc3ccc(-n4nnc5ccccc54)nc23)c1F)c1cccc(Cl)c1Cl | < 30 | < 30 | −11 | −3 | −9 | 0 | −1.9
30 to 300 |  | < 30 | 30 to 300 | < 30 | 0 | < 500 |  | COCCOc1cccc2c1nnn2-c1ccc2ncnc(Nc3c(F)ccc(NS(=O)(=O)c4cccc(Cl)c4Cl)c3F)c2n1 | < 30 | < 30 | 0 | −7 | 2 | 1 | 
30 to 300 |  | < 30 | > 300 | < 30 | 8 | < 500 |  | Cc1c(Cl)csc1S(=O)(=O)Nc1ccc(F)c(Nc2ncnc3ccc(-n4cc(S(=O)(=O)N(C)CCN(C)C)c5ccccc54)nc23)c1F | < 30 | < 30 | 8 | 4 | −18 | −8 | 
30 to 300 |  | < 30 | 30 to 300 | < 30 | −7 | < 500 |  | CCC1(O)CCN(c2cccc3c2ncn3-c2ccc3ncnc(Nc4c(F)ccc(NS(=O)(=O)c5cccc(Cl)c5Cl)c4F)c3n2)CC1 | < 30 | < 30 | −7 | 1 | 10 | 11 | 
